Entries after “also recorded” stand apart in the source; their conditions may differ.
Assays:
[1] = biological target: T1, rASIC1b (Rattus norvegicus, UniProt P55926); experiment: TEVC on Xenopus oocytes expressing rASIC1b; type: cell-based
T1 construct: expressed in transfected cells; host or cells: Xenopus laevis oocytes injected with cRNA
T1 sequence (P55926 1-559 isoform P55926-3): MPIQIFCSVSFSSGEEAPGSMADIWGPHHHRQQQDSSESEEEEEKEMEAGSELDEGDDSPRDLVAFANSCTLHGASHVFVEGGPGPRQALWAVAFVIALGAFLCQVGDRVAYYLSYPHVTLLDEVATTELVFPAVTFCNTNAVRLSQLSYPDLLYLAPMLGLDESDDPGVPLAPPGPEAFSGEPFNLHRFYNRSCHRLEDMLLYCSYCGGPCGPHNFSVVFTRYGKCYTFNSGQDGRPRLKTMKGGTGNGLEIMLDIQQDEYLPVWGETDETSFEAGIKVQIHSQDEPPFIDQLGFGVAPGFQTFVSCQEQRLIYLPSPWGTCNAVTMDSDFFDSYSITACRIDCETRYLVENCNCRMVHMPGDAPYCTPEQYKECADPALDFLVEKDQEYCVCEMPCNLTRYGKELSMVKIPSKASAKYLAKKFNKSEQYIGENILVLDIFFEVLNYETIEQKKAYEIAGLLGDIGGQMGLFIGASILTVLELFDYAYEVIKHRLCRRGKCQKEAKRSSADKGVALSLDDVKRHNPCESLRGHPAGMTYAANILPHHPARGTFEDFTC
Protocol: The ability of the peptides of the invention to modulate ASIC currents was assessed using two-electrode voltage clamp (TEVC) electrophysiology experiments performed on Xenopus laevis oocytes expressing homomeric ASIC channels. Xenopus oocytes are widely used as an expression system for functional characterisation of ion channel modulators. TEVC allows measurement of whole-cell ion channel currents while controlling the membrane potential.
Oocytes were harvested from anaesthetised female X. laevis then defolliculated by treatment with collagenase (Sigma, type I). Oocytes were injected with in vitro transcribed ASIC cRNA (capped RNA). Oocytes were kept at 17-18° C. in ND96 solution containing 96 mM NaCl, 2 mM KCl, 1.8 mM CaCl2, 2 mM MgCl2, 5 mM HEPES, 5 mM pyruvic acid, 50 μg/ml gentamicin (pH 7.4), and fetal horse serum (2.5%), and experiments were performed at room temperature (21-22° C.) 1-3 days after cRNA injection. Oocytes were clamped at −60 mV (Warner OC-725C oocyte clamp; Warner Instruments, CT, USA) using two standard glass microelectrodes of 0.5-2 MΩ resistance when filled with 3 M KCl. Data acquisition and analysis were performed using pCLAMP software, Version 10 (Axon Instruments, CA, USA). Currents were elicited by a drop in pH from 7.45 to 6.0 using a microperfusion system to allow rapid solution exchange. […]

[2] = test system: spontaneously hypertensive rats (SHR); experiment: Focal reperfusion (endothelin-1) stroke model in conscious SHR, i.c.v. administration; type: in vivo, rat
Protocol: (§1) The neuroprotective efficacy of Hi1a was assessed in a rat model of focal cerebral ischemia. In vivo experiments were conducted using a focal reperfusion model of stroke in conscious spontaneously hypertensive rats (SHR) as previously reported (McCarthy et al., Neuropharmacology 99, 650-657, 2015). Two 23-gauge stainless steel guide cannulae were stereotaxically implanted into anaesthetised animals (ketamine 75 mg/kg; xylazine 10 mg/kg; intraperitoneal) 5 days prior to stroke induction. The first cannula was implanted 3 mm dorsal to the right middle cerebral artery for stroke induction. The second cannula was implanted into the left lateral ventricle for drug administration.
(§2) After 5 days recovery, stroke was induced in conscious rats by inserting a 30-gauge injector protruding 3 mm below the previously implanted cannula. […] Only animals that achieved a level 4 stroke were included in the study. Typical behaviours associated with a level 4 stroke include continuous ipsilateral circling, clenching, dragging, failure to extend the left contralateral forelimb, chewing, jaw flexing, and shuffling with forepaws.
(§3) Compared to models of middle cerebral artery occlusion (MCAO) achieved by surgical exposure of the artery, this model has the advantage of minimal surgical intervention in the brain, and the stroke is induced in the absence of anaesthetics, which can confound the results of drug studies (Callaway et al., 1999; Sharkey et al., 1993). Stroke-induced motor deficit was assessed by counting the number of foot faults made while rats traversed a gradually narrowing ledged beam (McCarthy et al., Stroke 40, 1482-1489, 2009). Animals were trained to traverse the beam on two consecutive days prior to pre-stroke assessment. For the neurological score, postural abnormalities were assessed by elevating the rat by the tail above a flat surface and grading the severity of thorax twisting and the angle of forelimb extension. Both indicators of neurological health are scored between 0 and 3, with a score of 0 corresponding to no twisting of the thorax or complete forelimb extension towards the flat surface. A score of 3 corresponds to severe thorax twisting and a failure to extend the forelimb. The score for thorax twisting and forelimb extension are summed to give a total possible score of 6, which represents severe neurological deficit. Both behavioural tests were performed prior to stroke, and at 24 and 72 h after stroke.
(§4) At 72 h post-stroke, rats were re-anaesthetised (ketamine 75 mg/kg; xylazine 10 mg/kg; intraperitoneal) and transcardially perfused with physiologically buffered saline. Brains were removed, snap frozen and sectioned (16 μm) at eight pre-determined forebrain levels (−3.20 mm to 6.8 mm) relative to bregma. Sections were imaged, and infarct volumes were measured using the ballistic light method and corrected for edema (McCarthy et al., Stroke 40, 1482-1489, 2009).
The doses of Hi1a and PcTx1 were chosen to give approximately equivalent molar concentrations as Hi1a is twice the molecular mass of PcTx1. Drugs were dissolved in saline and infused in a volume of 3 μl over 3 min. At 3 days after stroke, the brains were perfused, removed, then snap frozen and sectioned to determine the infarct size.
In a separate series of experiments, Hi1a (2 ng/kg) was administered i.c.v. to SHR at 2, 4 or 8 hours after stroke induction. Motor-coordination (ledged beam test) and stroke-related postural abnormalities (neurological test) were evaluated at days 1 and 3 post-stroke. At 3 days after stroke, the brains were perfused, removed, then snap frozen and sectioned to determine the infarct size.

[3] = test system: spontaneously hypertensive rats (SHR); experiment: Focal reperfusion (endothelin-1) stroke model in conscious SHR, intranasal administration; type: in vivo, rat; settings: 2 μg/kg i.n. four hours after stroke
Protocol: as §1, §2
as §3, with “Animals were trained to traverse the beam on two consecutive days prior to pre-stroke assessment.” left out, “A score of 3 corresponds to severe thorax twisting and a failure to extend the forelimb. The score for thorax twisting and forelimb extension are summed to give a total possible score of 6, which represents severe neurological deficit. Both behavioural tests were performed prior to stroke, and at 24 and 72 h after stroke.” left out
as §4
Four hours after stroke induction, SHR were treated with a single intranasal (i.n.) dose of Hi1a (2 μg/kg) or vehicle (saline). […] Motor-coordination (ledged beam test) and stroke-related postural abnormalities (neurological test) were evaluated at 24 and 72 hours post-stroke. […]

[4] = 2 ng/kg i.c.v., 24 and 72 h post-stroke

CC[C@H](C)[C@@H]1NC(=O)[C@@H](NC(=O)[C@H](CCC(=O)O)NC(=O)[C@H](CC(N)=O)NC(=O)[C@@H](N)CO)CSSC[C@@H]2NC(=O)[C@@H]3CSSC[C@@H](C(=O)N[C@H](C(=O)N4CCC[C@H]4C(=O)N[C@H](C(=O)N4CCC[C@H]4C(=O)NCC(=O)N[C@@H](Cc4ccccc4)C(=O)N[C@H]4CSSC[C@@H]5NC(=O)[C@@H]6CSSC[C@@H](C(=O)N[C@@H](C)C(=O)N7CCC[C@H]7C(=O)N[C@H](C(=O)N[C@H](C(=O)O)[C@@H](C)O)[C@@H](C)CC)NC(=O)[C@H](C(C)C)NC(=O)[C@H](CO)NC(=O)[C@H](CO)NC(=O)[C@H](CCCCN)NC(=O)[C@H](CC(N)=O)NC(=O)CNC(=O)[C@H](CO)NC(=O)[C@H](CCCNC(=N)N)NC(=O)[C@H](CCCCN)NC(=O)[C@H](Cc7c[nH]c8ccccc78)NC(=O)[C@H](CSSC[C@H](NC(=O)[C@H](CCC(N)=O)NC(=O)[C@H](CCCCN)NC(=O)[C@H](Cc7c[nH]c8ccccc78)NC(=O)[C@H](CCCCN)NC(=O)[C@H](C(C)C)NC(=O)[C@H](CC(C)C)NC4=O)C(=O)N[C@@H](CC(=O)O)C(=O)NCC(=O)N[C@@H](CCCNC(=N)N)C(=O)N[C@@H](CCC(=O)O)C(=O)N[C@@H](CCCNC(=N)N)C(=O)N[C@@H](CC(=O)O)C(=O)N6)NC(=O)[C@H](CCC(=O)O)NC(=O)[C@H](CC(C)C)NC(=O)CNC(=O)[C@H](C)NC5=O)[C@@H](C)CC)C(C)C)NC(=O)[C@H](C(C)C)NC(=O)[C@H](CCC(=O)O)NC(=O)[C@H](Cc4ccccc4)NC(=O)[C@H](CO)NC(=O)[C@H](Cc4c[nH]cn4)NC(=O)[C@H](CCCNC(=N)N)NC(=O)[C@H](CCCNC(=N)N)NC(=O)[C@H](CCCCN)NC(=O)[C@H](Cc4ccc(O)cc4)NC(=O)[C@H](CSSC[C@H](NC(=O)[C@H](CO)NC(=O)[C@H](CC(C)C)NC(=O)[C@H](Cc4c[nH]c5ccccc45)NC(=O)[C@H](CCCCN)NC(=O)[C@H](CCCNC(=N)N)NC1=O)C(=O)N[C@@H](C(C)C)C(=O)N[C@@H](CC(=O)O)C(=O)N[C@@H](CCCNC(=N)N)C(=O)N[C@@H](CCCCN)C(=O)N[C@@H](CC(N)=O)C(=O)N[C@@H](CC(=O)O)C(=O)N3)NC(=O)[C@H](CCC(=O)O)NC(=O)[C@H](CC(C)C)NC(=O)CNC(=O)[C@H](CCC(=O)O)NC2=O [Hi1a] was tested, and the “Effect on rASIC1b current” value ([1]; 30 nM at pH 7.45) was “minimal effect”, the “Effect on rASIC1b current” value ([1]; 1 μM at pH 7.45) was “mildly potentiated” and the “Brain concentration equated from dose” value ([2]; 2 ng/kg i.c.v.) was roughly 1.2 nM. The “Infarct volume in cortical and striatal regions (in words)” value ([2]; 2 ng/kg i.c.v. at 2, 4 or 8 hours post-stroke) was “reduction in infarct volume; also recorded: reduces infarct size”, the “Motor impairment (ledged beam test)” value [2, 4] was “markedly reduced” and the “Neurological deficit (neurological score)” value [2, 4] was “markedly reduced”. The “Neuronal survival / neuronal architecture (NeuN staining) in penumbral and core regions” value ([2]; 2 ng/kg i.c.v., 72 h post-stroke) was “preservation of neuronal architecture; also recorded: improved neuronal survival”, the “Reduction of infarct size” value ([2]; single dose 2 ng/kg i.c.v. at 2, 4 or 8 hours post-stroke, volumes at 72 h) was 63-83% and the “Infarct size in cortical (penumbral) and striatal (core) regions” value ([2]; single i.c.v. dose two hours after stroke, Hi1a 2 ng/kg, PcTx1 and mutant 1 ng/kg, 72 h post-stroke) was “significant reduction in infarct volume; also recorded: reduced infarct size”. For the same compound, the “Motor impairment (ledged beam assay)” value [3] was “less motor impairment; also recorded: reduces sensorimotor deficits”, the “Neurological deficit (neurological score)” value [3] was “reduced neurological deficit; also recorded: improves overall neurological score” and the “Weight loss after stroke” value [3] was “less weight loss; also recorded: minimises weight loss”. The “Infarct size in cortical and striatal regions” value ([3]; 72 h post-stroke) was “dramatically reduced; also recorded: reduces infarct size”.

— US10881712B2, “Neuroprotective agents derived from spider venom peptides” (THE UNIVERSITY OF QUEENSLAND, priority 2015, dated 2021)
